# The list shows a part of the results, in another mix than the full data. Activity calls are given as the source filed them. Cut-off read from the data, not from the text of the source: active = activation above about 47%; inactive = the rest.
# Amino acid sequences for entries named in this document (tags omitted).
# UniProt P35869, whole entry: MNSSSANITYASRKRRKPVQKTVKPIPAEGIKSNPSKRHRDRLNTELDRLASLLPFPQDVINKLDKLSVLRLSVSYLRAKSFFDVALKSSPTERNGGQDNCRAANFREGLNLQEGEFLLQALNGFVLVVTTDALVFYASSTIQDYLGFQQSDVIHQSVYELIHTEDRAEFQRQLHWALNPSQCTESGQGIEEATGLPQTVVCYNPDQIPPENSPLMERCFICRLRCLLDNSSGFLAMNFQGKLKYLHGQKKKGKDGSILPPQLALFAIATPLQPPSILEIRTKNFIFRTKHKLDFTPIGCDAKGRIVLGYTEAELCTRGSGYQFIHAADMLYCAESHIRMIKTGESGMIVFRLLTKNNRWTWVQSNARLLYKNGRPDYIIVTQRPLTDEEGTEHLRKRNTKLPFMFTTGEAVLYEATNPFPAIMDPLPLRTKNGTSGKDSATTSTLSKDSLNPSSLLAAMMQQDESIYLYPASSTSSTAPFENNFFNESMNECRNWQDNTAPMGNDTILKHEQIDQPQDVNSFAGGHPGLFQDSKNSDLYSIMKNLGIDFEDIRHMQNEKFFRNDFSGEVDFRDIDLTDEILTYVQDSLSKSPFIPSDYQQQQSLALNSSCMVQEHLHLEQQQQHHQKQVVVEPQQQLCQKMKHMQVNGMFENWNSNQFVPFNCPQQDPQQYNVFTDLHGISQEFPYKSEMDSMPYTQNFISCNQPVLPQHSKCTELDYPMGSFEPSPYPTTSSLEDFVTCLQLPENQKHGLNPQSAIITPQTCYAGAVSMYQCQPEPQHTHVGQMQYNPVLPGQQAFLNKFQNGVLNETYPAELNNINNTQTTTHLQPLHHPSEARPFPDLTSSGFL
# Biological target: Aryl hydrocarbon receptor (Homo sapiens) (UniProt P35869)
# Assay: AHR activators, primary screen, cell-based, luminescence, luciferase reporter, human (AID 2796);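 note: 0% = vehicle wells and 100% = reference agonist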
# Details: AHR-responsive luciferase reporter cells, at 5 µM, active compounds read high
row,SMILES,activation
1,CP(=O)(Nc1ccccc1Br)Oc1ccccc1 (configuration not stated),inactive: -0.02%
2,COc1ccccc1OP(C)(=O)Nc1ccccc1 (configuration not stated),inactive: 1.57%
3,CP(=S)(Nn1cnnc1)Oc1ccccc1 (configuration not stated),inactive: 2.81%
4,CCc1ccc(OP(C)(=O)N2CCN(c3ccc([N+](=O)[O-])cc3)CC2)cc1 (configuration not stated),inactive: 0.97%
5,CP(=O)(NC(=O)Nc1ccccc1)Oc1ccccc1 (configuration not stated),inactive: 5.75%
6,Cc1cc(C)cc(OP(C)(=O)Nc2ccc(SC(F)(F)F)cc2)c1 (configuration not stated),inactive: -0.31%
7,CP(=O)(Nc1ccc(SC(F)(F)F)cc1)Oc1ccc(Cl)cc1 (configuration not stated),inactive: -1.6%
8,Cc1cccc(C)c1OP(C)(=O)Nc1ccc(SC(F)(F)F)cc1 (configuration not stated),inactive: 1.96%
9,CP(=O)(Oc1ccccc1)OC(c1ccccc1)C(F)(F)F (configuration not stated),inactive: 7.52%
10,CP(=O)(Nc1ccccn1)Oc1ccc(Cl)cc1 (configuration not stated),inactive: 0.51%
11,O=[N+]([O-])c1cc([N+](=O)[O-])c(O)c([N+](=O)[O-])c1.c1ccc(Oc2ccncc2)cc1,inactive: -2%
12,CCOC(=O)c1ccc(NP(C)(=O)Oc2ccc(OC)cc2)cc1 (configuration not stated),inactive: 4.5%
13,CCOP(C)(=S)SCC(=O)NC(C)C(=O)O (configuration not stated),inactive: 3.12%
14,CCN(CC)CCCOC(=O)C(O)(c1ccccc1)c1ccccc1,inactive: -0.91%
15,O=[N+]([O-])c1ccc2c(c1)C=Nc1ccccc1O2,inactive: -1.9%
16,CC(C)(C)c1ccc(OP(C)(=O)Nc2ccc(SC(F)(F)F)cc2)cc1 (configuration not stated),inactive: 0.25%
17,Cc1cccc(C)c1OP(C)(N)=O (configuration not stated),inactive: 0.16%
18,O=[N+]([O-])c1cc([N+](=O)[O-])c(Nc2cccnc2)c([N+](=O)[O-])c1,inactive: 26.9%
19,Cc1cc(C)cc(OP(C)(N)=O)c1 (configuration not stated),inactive: -1.15%
20,COc1ccccc1OP(C)(=O)Nc1cc(Cl)ccc1C (configuration not stated),inactive: 2.78%
21,COc1ccc(OP(C)(=O)Nc2cccc(F)c2)cc1 (configuration not stated),inactive: 1.15%
22,COc1ccccc1OP(C)(=O)Nc1ccc(C)cc1 (configuration not stated),inactive: 5.6%
23,Cc1ccc(NP(C)(=O)Oc2ccccc2)c(C)c1 (configuration not stated),inactive: 1.89%
24,CCOC(=O)c1ccc(NP(C)(=O)Oc2ccccc2)cc1 (configuration not stated),inactive: 15.2%
25,O=C(O)c1cccc(Nc2c([N+](=O)[O-])cc([N+](=O)[O-])cc2[N+](=O)[O-])c1,inactive: -0.81%
26,CC1=NCCc2c1[nH]c1ccccc21.O=[N+]([O-])c1cc([N+](=O)[O-])c(O)c([N+](=O)[O-])c1,inactive: 8.44%
27,CCOC(=O)c1ccc(NP(C)(=O)Oc2cc(C)cc(C)c2)cc1 (configuration not stated),inactive: 0.92%
